System: MMP9
Experiment: TNFα-induced MMP9 in HaCaT keratinocytes, gelatinase zymography (in vitro psoriasis model)
Assay type: cell-based, human
Conditions: substance alone (BFE or Anti-TNFα mAb 10 ug/ml; TNFα 5 ng/ml), 72 hours
Description: For the in vitro psoriasis model, this study used the HaCaT human keratinocyte cell line, which was obtained from ATCC/LGC standard (Teddington, Middlesex, UK). Cells were routinely cultured with Dubecco's modified Eagle medium (DMEM) supplemented with 10% foetal bovine serum, penicillin and streptomycin (Thermo Fisher Scientific, Paisley, UK). HaCaT cells were passaged for less than 2 months before fresh cells were resuscitated from earlier cryogenically preserved stocks. HaCaT cells were treated in the following conditions in triplicate. Recombinant human tumour necrosis factor alpha was obtained from PeproTech (PeproTech house, London, UK) and was used at a final concentration of 5 ng/ml throughout the study unless otherwise stated.
Boswellia frereana gum resin was purchased from Hargeisa, Somaliland, and successfully extracted as described previously. […] The constituents of BFE were then analysed and verified through GC-MS. […]
Treatments groups were added in triplicate/group (composed of the following: 1) Control (media only); 2) BFE [10 ug/ml]; 3) Anti-TNFα mAb [10 ug/ml]; 4) TNFα [5 ng/ml]; 5) TNFα [5 ng/ml]+BFE [10 ug/ml]; and 6) TNFα [5 ng/ml]+Anti-TNFα mAb [10 ug/ml]) and incubated for 72 hours. […] MMP9 protein levels was assessed and quantified using Image J analysis software and densitometry evaluation.

MMP9 Densitometry Value: 48778.8
MMP9 Normalised values: 38.0 densitometry units/ug total protein
Substance: TNFα: Recombinant human tumour necrosis factor alpha, inflammatory stimulus at 5 ng/ml

Reference: US12005094B2, “Inhibitor of inflammatory conditions” (Compton Developments Ltd., priority 2009, dated 2024)
